In one assay the test system is HEK293. As to the kind of experiment: Selectivity ratio of IC50 for mGluR3 (unknown origin) to EC50 for rat mGluR5 expressed in HEK293 cells. Type of assay: cell-based.
Assay [1] has as its target Metabotropic glutamate receptor 5 (Homo sapiens) (UniProt P41594). As to the kind of experiment: Agonist activity at mGluR5 (unknown origin) assessed as potentiation of glutamate-induced response at 10 uM relative to glutamate.

Sequences of proteins named here, by UniProt entry; tags and fusion partners are left off.
UniProt P41594, whole entry, looked up: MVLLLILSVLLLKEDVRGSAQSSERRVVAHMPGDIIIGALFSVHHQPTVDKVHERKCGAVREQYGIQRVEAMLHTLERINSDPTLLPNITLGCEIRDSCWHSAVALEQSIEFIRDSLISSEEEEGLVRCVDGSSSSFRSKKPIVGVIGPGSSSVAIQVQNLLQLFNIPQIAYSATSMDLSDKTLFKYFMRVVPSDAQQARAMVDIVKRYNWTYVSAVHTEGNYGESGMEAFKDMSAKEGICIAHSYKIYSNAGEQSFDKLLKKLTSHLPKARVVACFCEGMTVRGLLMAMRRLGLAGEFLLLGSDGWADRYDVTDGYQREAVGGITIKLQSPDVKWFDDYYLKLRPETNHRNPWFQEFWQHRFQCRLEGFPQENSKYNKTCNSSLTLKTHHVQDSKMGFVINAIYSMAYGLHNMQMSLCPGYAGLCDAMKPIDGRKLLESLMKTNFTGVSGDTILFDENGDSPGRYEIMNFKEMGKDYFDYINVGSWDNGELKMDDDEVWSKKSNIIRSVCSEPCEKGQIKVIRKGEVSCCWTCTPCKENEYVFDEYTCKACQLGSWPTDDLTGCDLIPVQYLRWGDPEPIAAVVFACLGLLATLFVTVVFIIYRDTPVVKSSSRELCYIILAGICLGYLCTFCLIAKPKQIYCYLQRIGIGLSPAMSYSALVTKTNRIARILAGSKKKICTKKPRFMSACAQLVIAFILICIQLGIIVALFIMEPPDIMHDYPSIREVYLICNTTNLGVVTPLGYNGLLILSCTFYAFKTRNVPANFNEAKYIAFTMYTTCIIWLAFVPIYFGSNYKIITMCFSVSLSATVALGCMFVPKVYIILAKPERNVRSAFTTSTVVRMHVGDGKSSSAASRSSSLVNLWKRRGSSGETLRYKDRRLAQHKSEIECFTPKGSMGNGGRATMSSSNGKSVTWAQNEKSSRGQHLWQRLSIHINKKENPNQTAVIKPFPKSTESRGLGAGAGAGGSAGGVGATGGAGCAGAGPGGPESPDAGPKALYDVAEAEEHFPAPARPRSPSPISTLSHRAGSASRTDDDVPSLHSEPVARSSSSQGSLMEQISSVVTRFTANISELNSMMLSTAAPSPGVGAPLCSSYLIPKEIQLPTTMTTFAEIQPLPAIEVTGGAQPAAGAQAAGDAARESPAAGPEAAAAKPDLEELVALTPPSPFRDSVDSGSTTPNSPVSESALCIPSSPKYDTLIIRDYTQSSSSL

As for `O=C1N(c2ccc(F)cc2)CCc2nc(COc3ccccc3)cn21`, the Ratio IC50/EC50 with HEK293 was 2. The fold change (FC) in assay [1] is 12.5.

With `O=c1n(-c2ccc(F)cc2)ccc2nc(COc3ccccc3)cn12`, the Ratio IC50/EC50 with HEK293 was 2.
